Experimental data taken from patent publication US8017350B2, “Glimepiride- and insulin-induced glycosylphosphatidylinositol-specific phospholipase C regulation” (Sanofi-Aventis Deutschland GmbH, priority 2004, dated 2011).

Experiments:
GPI-PLC (T. brucei) = target: T1, GPI-PLC (T. brucei) (Trypanosoma brucei brucei, UniProt P09194); test: GPI-PLC (T. brucei) assay, human placental aP substrate, TX-114 partitioning; format: biochemical
T1 construct: purchased Oxford Glycosystems (Oxford, UK)
Experimental: (§1) GPI-PLD (rat serum) was assayed according to “Hari et al. (1997) Biochim. Biophys. Acta 1355: 293-302” by incubation with 10 μl of human placental aP solution (100 U/ml in 10 mM Hepes/NaOH, pH 7.0, 150 mM NaCl) in 100 μl of 200 mM Tris/maleate (pH 7.0) and 1% Nonidet P-40 for 10 min at 37° C. and subsequent termination of the reaction by addition of 0.4 ml of ice-cold stop buffer (10 mM Hepes/NaOH, pH 7.0, 150 mM NaCl, 0.1 mM MgCl2 and 0.01 mM zinc acetate). GPI-PLC (T. brucei) was assayed as described in “Mensa-Wilmot et al. (1995) Methods Enzymol. […]
(§2) Pelleted hc/lcDIGs (10-50 μg protein) or (G)PI-PLC reaction mixtures (0.5 ml) were separated into amphiphilic and hydrophilic proteins using partitioning between TX-114-enriched and depleted phases according to “Bordier, C., (1981) J. Biol, Chem. […]” by suspending in 1 ml of ice-cold TX-114 (1%), 25 mM Tris/HCl (pH 7.4), 144 mM NaCl or mixing with 0.5 ml of ice-cold TX-114 (2%), respectively. […] After re-extraction of the lower TX-114-enriched phase, aliquots of the pooled upper TX-114-depleted phase were measured for 5′-Nuc, aP and AChE activity or precipitated (15 polyethylene glycol 4000) for SDS-PAGE analysis. […]
(§3) FIG. 2: Potency of GPI-2350. […] The lipolytic activity was calculated as % of the control reaction in the absence of GPI-2350 (set at 100%). […]

PI-PLC (B. cereus) = target: T2, PI-PLC (B. cereus) (Bacillus cereus, UniProt P14262); test: PI-PLC (B. cereus) assay, AChE substrate, TX-114 partitioning; format: biochemical
T2 construct: purchased SigmalAldrich (Deisenhofen, Germany)
Experimental: as §1, §2, §3

In the case of `CCCCCCCCCCCCP(=O)(O)O[C@H]1[C@H](O)[C@@H](O)[C@H](O)[C@@H](O)[C@@H]1F` [GPI-1793, 2-deoxy-2-fluoro-scyllo-inositol-1-O-dodecyl-phosphonic acid], the IC50 (GPI-PLC (T. brucei)) is reported as 25 to 35 µM, the inhibition at 1000 µM (GPI-PLC (T. brucei); read-out: inhibition % at 1 mM) is reported as 89% and the IC50 (PI-PLC (B. cereus)) is reported as 110 to 140 µM. It also gave an inhibition at 1000 µM (PI-PLC (B. cereus); read-out: inhibition % at 1 mM) of 70%.
